{"sequences": {"note": "Amino acid sequences for entries named in this document (tags omitted).", "UniProt P32300, whole entry": "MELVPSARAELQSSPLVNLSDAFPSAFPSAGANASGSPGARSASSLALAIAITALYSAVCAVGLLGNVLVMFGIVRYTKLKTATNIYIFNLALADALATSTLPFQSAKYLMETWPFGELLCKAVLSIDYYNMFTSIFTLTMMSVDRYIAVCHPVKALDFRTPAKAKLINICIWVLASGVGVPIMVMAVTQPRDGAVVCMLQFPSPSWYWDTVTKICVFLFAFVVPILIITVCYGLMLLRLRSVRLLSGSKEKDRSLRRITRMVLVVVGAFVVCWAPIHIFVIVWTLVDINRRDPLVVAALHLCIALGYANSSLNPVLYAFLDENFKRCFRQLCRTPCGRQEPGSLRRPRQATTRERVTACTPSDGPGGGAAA"}, "source": "patent US9725457B2", "about": "“6-amido derivatives of 4, 5-a epoxymorphinans for the treatment of pain” (Sloan-Kettering Institute for Cancer Research, priority 2010, dated 2017)", "molecular_target": "T1, DOR (delta opioid receptor), DOR1-CHO (Mus musculus, UniProt P32300)", "T1 construct": "expressed in transfected cells; host or cells: CHO", "test": "Competition binding in DOR-CHO, 125I-SMGP1 radioligand", "protocol": "Receptor-Binding Assays: Competition-binding assays in MOR-CHO (mu), DOR-CHO (delta) and KOR-CHO (kappa) were performed at 25° C. in 50 mM potassium phosphate buffer, pH 7.4, containing 5 mM magnesium sulfate (only in the case of CHO-MOR). Specific binding was defined as the difference between total binding and nonspecific binding, determined in the presence of 8 μM levallorphan. […] Protein concentrations were generally 20-40 μg/mL, incubation times were 90 minutes for all assays. […] Specific binding was defined as the difference between total binding and nonspecific binding, determined in the presence of 8 μM levallorphan. […] Kd, Bmax, and Ki values were calculated by nonlinear regression analysis (GraphPadPrism).", "data": [{"molecule": "C=CCN1CCC23c4c5ccc(O)c4OC2C(NC(=O)c2ccc(-c4ccccc4)cc2)CCC3(O)C1C5", "note": "(stereo not shown) [SMGP 40]", "values": [{"measurement": "Ki", "result": 19.2, "unit": "nM"}]}]}
